This assay has as its target T1, CBP bromodomain (Homo sapiens, UniProt Q92793).
T1 construct: purchased
In words: CBP AlphaLISA Assay Kit: binding of CBP bromodomain to acetylated histone substrate. The conditions noted are these: 30 min incubation with CBP and biotinylated substrate, N=2, unit inferred. The method, then: The biochemical activity test of CBP preparations was detected using CBP AlphaLISA® Assay Kit. The detection principle is based on the binding of CBP bromodomain to acetylated histone substrate. The compounds were incubated with CBP and biotinylated substrate for 30 min, followed by the addition of acceptor beads for 15 min and donor beads for 15 min. Alpha counts were read, data were analyzed using Prism 7.0 and IC50 values were calculated.
In general terms: In Alpha technology, singlet oxygen from a donor bead excites a nearby acceptor bead.

Protein sequences, listed by entry. Tags and fused reporters are not part of them. Residues count along the entry.
UniProt Q92793, 1085-1192 limits assumed: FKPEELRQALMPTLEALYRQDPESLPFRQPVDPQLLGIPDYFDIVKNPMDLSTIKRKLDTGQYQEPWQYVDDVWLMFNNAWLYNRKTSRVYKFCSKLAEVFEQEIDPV

Molecules are shown by their SMILES.

One molecule from EP4813980A1, “EP300/CBP REGULATOR, AND PREPARATION METHOD THEREFOR AND USE THEREOF” (Miracure Biotechnology Limited, priority 2023, dated 2025) can be followed below.

The IC50 is the concentration at which inhibition is half-maximal. A low value points to higher potency.

Molecule `CO[C@H]1CC[C@H](n2c([C@@H]3CCCC(=O)N3c3ccc(F)c(F)c3)nc3cc(-c4c(C)noc4C)ccc32)CC1` [CCS1477] gave an IC50 of 9.9 nM.
